Data: the Human Domainome abundance scans (Beltran et al. 2025)
± gives the uncertainty stated by the source.

B1: X-ray repair cross-complementing protein 6, residues 558 to 609; numbered along this chain, P12956 (parent)
chain: EYSEEELKTHISKGTLGKFTVPMLKEACRAYGLKSGLKKQELLEALTKHFQD

Variants of: B1
Experiment: abundance fitness (aPCA) (normalised: wild type 0, dead -1); higher = more abundant; growth selection in yeast, the domain comes from the species named
Conditions: Homo sapiens

Question: For EYCEEELKTHISKGTLGKFTVPMLKEACRAYGLKSGLKKQELLEALTKHFQD [S3C], which abundance fitness is on record?
Answer: -0.146 ± 0.062

Question: For EYTEEELKTHISKGTLGKFTVPMLKEACRAYGLKSGLKKQELLEALTKHFQD [S3T], which abundance fitness is on record?
Answer: -0.129 ± 0.05

Question: Which abundance fitness does the source give for EYQEEELKTHISKGTLGKFTVPMLKEACRAYGLKSGLKKQELLEALTKHFQD [S3Q] here?
Answer: -0.299 ± 0.036

Question: Which abundance fitness does the source give for EYIEEELKTHISKGTLGKFTVPMLKEACRAYGLKSGLKKQELLEALTKHFQD [S3I] here?
Answer: -0.294 ± 0.079

Question: Which abundance fitness does the source give for EYVEEELKTHISKGTLGKFTVPMLKEACRAYGLKSGLKKQELLEALTKHFQD [S3V] here?
Answer: -0.6 ± 0.04

Question: For EYMEEELKTHISKGTLGKFTVPMLKEACRAYGLKSGLKKQELLEALTKHFQD [S3M], which abundance fitness is on record?
Answer: -0.107 ± 0.039

Question: With EYFEEELKTHISKGTLGKFTVPMLKEACRAYGLKSGLKKQELLEALTKHFQD [S3F] as the variant, how does the abundance fitness read?
Answer: 0.14 ± 0.079

Question: With EYLEEELKTHISKGTLGKFTVPMLKEACRAYGLKSGLKKQELLEALTKHFQD [S3L] as the variant, how does the abundance fitness read?
Answer: -0.118 ± 0.045

Question: Which abundance fitness does the source give for EYDEEELKTHISKGTLGKFTVPMLKEACRAYGLKSGLKKQELLEALTKHFQD [S3D] here?
Answer: -0.079 ± 0.07

Question: With EYEEEELKTHISKGTLGKFTVPMLKEACRAYGLKSGLKKQELLEALTKHFQD [S3E] as the variant, how does the abundance fitness read?
Answer: -0.537 ± 0.06

Question: Which abundance fitness does the source give for EYPEEELKTHISKGTLGKFTVPMLKEACRAYGLKSGLKKQELLEALTKHFQD [S3P] here?
Answer: -0.276 ± 0.042

Question: Which abundance fitness does the source give for EYREEELKTHISKGTLGKFTVPMLKEACRAYGLKSGLKKQELLEALTKHFQD [S3R] here?
Answer: -0.288 ± 0.04

Question: For EYYEEELKTHISKGTLGKFTVPMLKEACRAYGLKSGLKKQELLEALTKHFQD [S3Y], which abundance fitness is on record?
Answer: -0.192 ± 0.069

Question: With EYGEEELKTHISKGTLGKFTVPMLKEACRAYGLKSGLKKQELLEALTKHFQD [S3G] as the variant, how does the abundance fitness read?
Answer: -0.433 ± 0.045

Question: With EYKEEELKTHISKGTLGKFTVPMLKEACRAYGLKSGLKKQELLEALTKHFQD [S3K] as the variant, how does the abundance fitness read?
Answer: -0.185 ± 0.056

Question: With EYAEEELKTHISKGTLGKFTVPMLKEACRAYGLKSGLKKQELLEALTKHFQD [S3A] as the variant, how does the abundance fitness read?
Answer: -0.569 ± 0.035

Question: For EYWEEELKTHISKGTLGKFTVPMLKEACRAYGLKSGLKKQELLEALTKHFQD [S3W], which abundance fitness is on record?
Answer: -0.274 ± 0.047

Question: Which abundance fitness does the source give for EYNEEELKTHISKGTLGKFTVPMLKEACRAYGLKSGLKKQELLEALTKHFQD [S3N] here?
Answer: -0.094 ± 0.059

Question: With EESEEELKTHISKGTLGKFTVPMLKEACRAYGLKSGLKKQELLEALTKHFQD [Y2E] as the variant, how does the abundance fitness read?
Answer: -0.427 ± 0.041

Question: For ETSEEELKTHISKGTLGKFTVPMLKEACRAYGLKSGLKKQELLEALTKHFQD [Y2T], which abundance fitness is on record?
Answer: -0.256 ± 0.037

Question: For ERSEEELKTHISKGTLGKFTVPMLKEACRAYGLKSGLKKQELLEALTKHFQD [Y2R], which abundance fitness is on record?
Answer: -0.584 ± 0.045

Question: For EVSEEELKTHISKGTLGKFTVPMLKEACRAYGLKSGLKKQELLEALTKHFQD [Y2V], which abundance fitness is on record?
Answer: -0.25 ± 0.046

Question: Which abundance fitness does the source give for EQSEEELKTHISKGTLGKFTVPMLKEACRAYGLKSGLKKQELLEALTKHFQD [Y2Q] here?
Answer: -0.526 ± 0.039

Question: Which abundance fitness does the source give for EFSEEELKTHISKGTLGKFTVPMLKEACRAYGLKSGLKKQELLEALTKHFQD [Y2F] here?
Answer: 0.041 ± 0.064

Question: For EDSEEELKTHISKGTLGKFTVPMLKEACRAYGLKSGLKKQELLEALTKHFQD [Y2D], which abundance fitness is on record?
Answer: -0.468 ± 0.066

Question: With ELSEEELKTHISKGTLGKFTVPMLKEACRAYGLKSGLKKQELLEALTKHFQD [Y2L] as the variant, how does the abundance fitness read?
Answer: -0.102 ± 0.04

Question: With EPSEEELKTHISKGTLGKFTVPMLKEACRAYGLKSGLKKQELLEALTKHFQD [Y2P] as the variant, how does the abundance fitness read?
Answer: -0.349 ± 0.05

Question: Which abundance fitness does the source give for EKSEEELKTHISKGTLGKFTVPMLKEACRAYGLKSGLKKQELLEALTKHFQD [Y2K] here?
Answer: -0.249 ± 0.049

Question: For ESSEEELKTHISKGTLGKFTVPMLKEACRAYGLKSGLKKQELLEALTKHFQD [Y2S], which abundance fitness is on record?
Answer: -0.388 ± 0.036

Question: For EHSEEELKTHISKGTLGKFTVPMLKEACRAYGLKSGLKKQELLEALTKHFQD [Y2H], which abundance fitness is on record?
Answer: -0.345 ± 0.034

Question: For EGSEEELKTHISKGTLGKFTVPMLKEACRAYGLKSGLKKQELLEALTKHFQD [Y2G], which abundance fitness is on record?
Answer: -0.529 ± 0.044

Question: Which abundance fitness does the source give for EMSEEELKTHISKGTLGKFTVPMLKEACRAYGLKSGLKKQELLEALTKHFQD [Y2M] here?
Answer: -0.123 ± 0.043

Question: For ENSEEELKTHISKGTLGKFTVPMLKEACRAYGLKSGLKKQELLEALTKHFQD [Y2N], which abundance fitness is on record?
Answer: -0.403 ± 0.086

Question: With EASEEELKTHISKGTLGKFTVPMLKEACRAYGLKSGLKKQELLEALTKHFQD [Y2A] as the variant, how does the abundance fitness read?
Answer: -0.509 ± 0.056

Question: For ECSEEELKTHISKGTLGKFTVPMLKEACRAYGLKSGLKKQELLEALTKHFQD [Y2C], which abundance fitness is on record?
Answer: -0.38 ± 0.05

Question: For EISEEELKTHISKGTLGKFTVPMLKEACRAYGLKSGLKKQELLEALTKHFQD [Y2I], which abundance fitness is on record?
Answer: 0.169 ± 0.072

Question: With EYSAEELKTHISKGTLGKFTVPMLKEACRAYGLKSGLKKQELLEALTKHFQD [E4A] as the variant, how does the abundance fitness read?
Answer: -0.22 ± 0.053

Question: For LYSEEELKTHISKGTLGKFTVPMLKEACRAYGLKSGLKKQELLEALTKHFQD [E1L], which abundance fitness is on record?
Answer: 0.16 ± 0.17

Question: Which abundance fitness does the source give for SYSEEELKTHISKGTLGKFTVPMLKEACRAYGLKSGLKKQELLEALTKHFQD [E1S] here?
Answer: -0.436 ± 0.12

Question: For RYSEEELKTHISKGTLGKFTVPMLKEACRAYGLKSGLKKQELLEALTKHFQD [E1R], which abundance fitness is on record?
Answer: -0.412 ± 0.088

Question: For DYSEEELKTHISKGTLGKFTVPMLKEACRAYGLKSGLKKQELLEALTKHFQD [E1D], which abundance fitness is on record?
Answer: 0.095 ± 0.077

Question: For KYSEEELKTHISKGTLGKFTVPMLKEACRAYGLKSGLKKQELLEALTKHFQD [E1K], which abundance fitness is on record?
Answer: 0.118 ± 0.14

Question: With GYSEEELKTHISKGTLGKFTVPMLKEACRAYGLKSGLKKQELLEALTKHFQD [E1G] as the variant, how does the abundance fitness read?
Answer: -0.051 ± 0.042

Question: With TYSEEELKTHISKGTLGKFTVPMLKEACRAYGLKSGLKKQELLEALTKHFQD [E1T] as the variant, how does the abundance fitness read?
Answer: -0.694 ± 0.21

Question: With MYSEEELKTHISKGTLGKFTVPMLKEACRAYGLKSGLKKQELLEALTKHFQD [E1M] as the variant, how does the abundance fitness read?
Answer: -0.386 ± 0.12

Question: With AYSEEELKTHISKGTLGKFTVPMLKEACRAYGLKSGLKKQELLEALTKHFQD [E1A] as the variant, how does the abundance fitness read?
Answer: -0.268 ± 0.071

Question: With HYSEEELKTHISKGTLGKFTVPMLKEACRAYGLKSGLKKQELLEALTKHFQD [E1H] as the variant, how does the abundance fitness read?
Answer: -0.321 ± 0.093

Question: With CYSEEELKTHISKGTLGKFTVPMLKEACRAYGLKSGLKKQELLEALTKHFQD [E1C] as the variant, how does the abundance fitness read?
Answer: -0.546 ± 0.18

Question: For YYSEEELKTHISKGTLGKFTVPMLKEACRAYGLKSGLKKQELLEALTKHFQD [E1Y], which abundance fitness is on record?
Answer: 0.039 ± 0.22

Question: With VYSEEELKTHISKGTLGKFTVPMLKEACRAYGLKSGLKKQELLEALTKHFQD [E1V] as the variant, how does the abundance fitness read?
Answer: -0.207 ± 0.063
